Laboratory results published in ChEMBL document CHEMBL1287807, “Novel TNF-α converting enzyme (TACE) inhibitors as potential treatment for inflammatory diseases” (Bioorg Med Chem Lett, 2010).

Chains of the proteins cited; added tags and fusions are not shown. Lines headed by an entry give the natural chain unless they say otherwise; changes in a name come on top.
UniProt P78536: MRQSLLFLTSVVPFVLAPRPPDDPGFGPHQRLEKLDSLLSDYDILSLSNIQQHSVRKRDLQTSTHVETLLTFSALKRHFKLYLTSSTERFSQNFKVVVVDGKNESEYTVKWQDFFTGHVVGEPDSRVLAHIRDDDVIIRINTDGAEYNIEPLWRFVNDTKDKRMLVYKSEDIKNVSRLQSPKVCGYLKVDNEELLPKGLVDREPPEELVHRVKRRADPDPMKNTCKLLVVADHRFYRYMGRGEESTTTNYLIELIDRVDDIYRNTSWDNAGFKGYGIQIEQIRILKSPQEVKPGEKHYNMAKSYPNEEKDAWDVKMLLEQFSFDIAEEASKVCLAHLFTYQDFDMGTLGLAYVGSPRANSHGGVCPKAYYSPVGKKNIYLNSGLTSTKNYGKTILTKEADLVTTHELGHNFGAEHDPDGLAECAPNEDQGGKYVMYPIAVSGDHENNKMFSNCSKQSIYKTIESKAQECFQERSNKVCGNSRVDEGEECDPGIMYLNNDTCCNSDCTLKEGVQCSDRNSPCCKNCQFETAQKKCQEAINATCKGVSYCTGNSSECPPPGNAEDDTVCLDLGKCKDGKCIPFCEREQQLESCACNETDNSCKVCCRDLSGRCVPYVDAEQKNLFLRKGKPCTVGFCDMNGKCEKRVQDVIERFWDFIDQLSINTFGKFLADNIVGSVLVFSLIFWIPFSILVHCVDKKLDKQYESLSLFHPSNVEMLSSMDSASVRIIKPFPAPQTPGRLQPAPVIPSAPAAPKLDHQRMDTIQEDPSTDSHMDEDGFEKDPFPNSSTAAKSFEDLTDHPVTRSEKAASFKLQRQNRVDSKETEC

Target: Disintegrin and metalloproteinase domain-containing protein 17 (Homo sapiens, UniProt P78536)
Experiment: Inhibition of TACE

SMILES | Ki [nM]
COc1ccc2c(c1)C(=O)N(C[C@@]1(C#Cc3ccc(N4CCNCC4)cc3)NC(=O)NC1=O)C2 | 0.61
COc1ccc2c(c1)C(=O)N(C[C@@]1(C#Cc3ccc(CC(N)=O)cc3)NC(=O)NC1=O)C2 | 0.42
